Measured values from PMC12513289 (The Journal of Biological Chemistry, 2025).

Molecular target: the molecule itself
Assay: mass photometry; dimer to monomers; enzymes diluted to between 5 and 100 nM; counts in monomer and dimer peaks

B1: human asparaginyl-tRNA synthetase (AsnRS), wild type, N-terminal 6xHis tag (enzyme, UniProt O43776 1-548, looked up)
chain: MVLAELYVSDREGSDATGDGTKEKPFKTGLKALMTVGKEPFPTIYVDSQKENERWNVISKSQLKNIKKMWHREQMKSESREKKEAEDSLRREKNLEEAKKITIKNDPSLPEPKCVKIGALEGYRGQRVKVFGWVHRLRRQGKNLMFLVLRDGTGYLQCVLADELCQCYNGVLLSTESSVAVYGMLNLTPKGKQAPGGHELSCDFWELIGLAPAGGADNLINEESDVDVQLNNRHMMIRGENMSKILKARSMVTRCFRDHFFDRGYYEVTPPTLVQTQVEGGATLFKLDYFGEEAFLTQSSQLYLETCLPALGDVFCIAQSYRAEQSRTRRHLAEYTHVEAECPFLTFDDLLNRLEDLVCDVVDRILKSPAGSIVHELNPNFQPPKRPFKRMNYSDAIVWLKEHDVKKEDGTFYEFGEDIPEAPERLMTDTINEPILLCRFPVEIKSFYMQRCPEDSRLTESVDVLMPNVGEIVGGSMRIFDSEEILAGYKREGIDPTPYYWYTDQRKYGTCPHGGYGLGLERFLTWILNRYHIRDVCLYPRFVQRCTP
notes: also called AsnRS^WT; His-WT; source: E. coli BL21(DE3) or BL21 ClearColi, purified (Ni-NTA, heparin, SEC); not shown: His6, N-terminal, kept
  Kd: 3 ± 1.2 nM
